Molecules are shown by their SMILES.

The chains behind the UniProt entries cited, without tags or fusion partners.
UniProt P06276, whole entry: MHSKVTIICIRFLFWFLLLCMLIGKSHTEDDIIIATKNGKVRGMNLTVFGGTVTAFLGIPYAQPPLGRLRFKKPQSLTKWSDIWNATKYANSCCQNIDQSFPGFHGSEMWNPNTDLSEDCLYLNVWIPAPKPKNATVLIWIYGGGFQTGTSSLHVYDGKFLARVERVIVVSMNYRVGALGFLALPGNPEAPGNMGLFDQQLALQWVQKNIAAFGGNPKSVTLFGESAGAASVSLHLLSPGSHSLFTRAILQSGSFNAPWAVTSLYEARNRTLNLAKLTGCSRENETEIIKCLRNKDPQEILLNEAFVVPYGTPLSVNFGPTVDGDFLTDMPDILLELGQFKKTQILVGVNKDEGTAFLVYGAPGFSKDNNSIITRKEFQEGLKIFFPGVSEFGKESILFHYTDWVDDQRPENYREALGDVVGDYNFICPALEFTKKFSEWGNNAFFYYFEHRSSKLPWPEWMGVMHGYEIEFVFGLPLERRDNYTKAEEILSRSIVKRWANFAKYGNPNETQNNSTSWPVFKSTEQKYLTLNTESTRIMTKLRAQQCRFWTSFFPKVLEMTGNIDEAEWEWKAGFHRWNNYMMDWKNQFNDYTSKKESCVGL

In the test the target is Cholinesterase (Homo sapiens, UniProt P06276).

In the case of `CCN(C)C(=O)Oc1cccc([C@H](C)N(C)C)c1` [RIVASTIGMINE], the midpoint of inhibition, the IC50, lay at 49 nM.
